Source: patent US20260144805A1, “CANNABIDIOL COMPOSITIONS FOR USE IN THE TREATMENT OF NEURODEGENERATIVE AND NEUROLOGICAL DISORDERS” (JAZZ PHARMACEUTICALS RESEARCH UK LIMITED, priority 2022, published 2026)

Tested on: rat model of essential tremor
Test: Harmaline rat model of essential tremor, tremor plate: motion power percentage, tremor index, number of tremors, time in tremor, tremor length (Example 4)
Format: in vivo
Set-up: key: ns = not significant; *, **, ***, **** = statistical significance at p < 0.05, 0.01, 0.001, 0.0001 respectively; *, **, ***, **** = statistical significance at p < 0.05, 0.01, 0.001, 0.0001 respectively; *, **, ***, **** = statistical significance at p < 0.05, 0.01, 0.001, 0.0001 respectively; *, **, ***, **** = statistical significance at p < 0.05, 0.01, 0.001, 0.0001 respectively
Conditions: I.P.
Description: The following study was designed to assess the drug substance (DS) efficacy in the rat model of essential tremor. Synthetic CBD (sCBD I.P.) and DS I.P. and DS. P.O and compared observing tremor score, motion power percentage (MPP), tremor index (TI), number of tremors, total time spent in tremor, and average tremor length.
Animals (254 male Sprague Dawley rats from Charles River UK, approximately aged 6-7 weeks, weight range 222-361 g) were housed in groups of 2-4, in standard caging with free access to food and water on a 12 h/12 h light/dark cycle from arrival (lights on at 7:00 AM) and were habituated to the tremor plate apparatus the day before the day of the experiment (2×5 min sessions 20 minutes apart). On the test day, the following treatments were administered: • At T=−100 min • 6, 12, 20 or 30 mg/kg Drug Substance (DS of Example 1) or vehicle via p.o. • 91.11 mg/kg sCBD via i.p. • 100 mg/kg Drug Substance (DS of Example 1) via i.p. • At T-=40 min: • Vehicle only, 9.11 mg/kg, 27.33 mg/kg, or 54.67 mg/kg sCBD via i.p. • Vehicle only, 10 mg/kg, 30 mg/kg, or 60 mg/kg Drub Substance (DS of Example 1) via i.p. • Propranolol 20 mg/kg was given at T=−30 min and Harmaline was given at T=0 for all studies.
The results are summarized in Tables J-M. All comparisons were made to the harmaline+vehicle group within each study.

## C=C(C)[C@@H]1CCC(C)=C[C@H]1c1c(O)cc(CCCCC)cc1O [sCBD, 2-[(1R,6R)-3-Methyl-6-(1-methylethenyl)-2-cyclohexen-1-yl]-5-pentyl-1,3-benzenediol]
Dose 9.1 mg/kg, 20 min
  Tremor Index, significance vs harmaline + vehicle: ns
Dose 9.1 mg/kg, 40 min
  Tremor Index, significance vs harmaline + vehicle: ns
Dose 9.1 mg/kg, 60 min
  Tremor Index, significance vs harmaline + vehicle: ns
Dose 27.3 mg/kg, 20 min
  Tremor Index, significance vs harmaline + vehicle: ns
Dose 27.3 mg/kg, 40 min
  Tremor Index, significance vs harmaline + vehicle: ns
Dose 27.3 mg/kg, 60 min
  Tremor Index, significance vs harmaline + vehicle: ns
Dose 54.7 mg/kg, 20 min
  Tremor Index, significance vs harmaline + vehicle: ns
Dose 54.7 mg/kg, 40 min
  Tremor Index, significance vs harmaline + vehicle: ns
Dose 54.7 mg/kg, 60 min
  Tremor Index, significance vs harmaline + vehicle: ns
Dose 91.1 mg/kg, 20 min
  Tremor Index, significance vs harmaline + vehicle: ns
Dose 91.1 mg/kg, 40 min
  Tremor Index, significance vs harmaline + vehicle: ns
Dose 91.1 mg/kg, 60 min
  Tremor Index, significance vs harmaline + vehicle: * (*, **, ***, **** = statistical significance at p < 0.05, 0.01, 0.001, 0.0001 respectively)
